Test results reported in ChEMBL document CHEMBL1152169, “Synthesis and structure-activity relationships of selective norepinephrine reuptake inhibitors (sNRI) with improved pharmaceutical characteristics” (Bioorg Med Chem Lett, 2008).

assay: Metabolic stability assessed as intrinsic clearance in rat liver microsome; conditions: liver microsomes

| Structure (SMILES) | CLint scaled [mL/min/kg] |
| --- | --- |
| CCc1ccccc1O[C@H]1c2ccccc2C[C@@]1(O)CNC | ≤ 3 |
| CNC[C@]1(O)Cc2ccccc2[C@@H]1Oc1ccc(C)cc1C | 32 |
| CNC[C@]1(O)Cc2ccccc2[C@@H]1Oc1cccc(O)c1C | 6 |
| CNC[C@]1(O)Cc2ccccc2[C@@H]1Oc1ccc(F)cc1C | ≤ 3 |
| CNC[C@]1(O)Cc2ccccc2[C@@H]1Oc1cccc(C)c1C | 43 |
| CNC[C@]1(O)Cc2ccccc2[C@@H]1Oc1ccccc1C | 10 |
| CNC[C@]1(O)Cc2ccccc2[C@@H]1Oc1ccccc1OC | ≤ 3 |
